Test system: primary HSCs

Cc1sc2c(c1C)C(c1ccc(Cl)cc1)=N[C@@H](CC(=O)OC(C)(C)C)c1nnc(C)n1-2 [JQ1, (S)-tert-butyl 2-(4-(4-chlorophenyl)-2,3,9-trimethyl-6H-thieno[3,2-f][1,2,4]triazolo[4,3-a][1,4]diazepin-6-yl)acetate]
Rab34 log2(fold_change): −0.2385
Rab3d log2(fold_change): −0.3572
Racgap1 log2(fold_change): 0.4694
Rad51 log2(fold_change): 0.8001
Rap1gap2 log2(fold_change): −3.0594
Rarb log2(fold_change): 0.5451
Rasl11a log2(fold_change): −0.707
Rasl11b log2(fold_change): −0.6909
Rasl12 log2(fold_change): −3.9176
Rbp1 log2(fold_change): 0.875
Reck log2(fold_change): 0.9921
Reep5 log2(fold_change): −0.6259
Rftn1 log2(fold_change): −0.8376
Rftn2 log2(fold_change): −1.9248
Rgs4 log2(fold_change): −3.3664
Rhobtb3 log2(fold_change): −0.3871
Rhoq log2(fold_change): −0.8314
Rian log2(fold_change): −0.8929
Rnft1 log2(fold_change): −0.32
Ror1 log2(fold_change): −0.5141
Rprd1a log2(fold_change): −0.3768
Rrm2 log2(fold_change): 0.9922
Rtn1 log2(fold_change): 2.23
Runx2 log2(fold_change): −0.5139
Ryk log2(fold_change): −0.3459
S100a1 log2(fold_change): −0.246
S100a4 log2(fold_change): 1.143
S100a6 log2(fold_change): 0.613
Saa3 log2(fold_change): −4.0632
Samd4 log2(fold_change): −0.6143
Sardh log2(fold_change): −1.7257
Sat2 log2(fold_change): −0.4861
Sbsn log2(fold_change): 1.031
Scara3 log2(fold_change): 1.074
Scd1 log2(fold_change): −0.6976
Sce1 log2(fold_change): −2.2691
Scrn1 log2(fold_change): 0.5985
Sdpr log2(fold_change): 1.788
Sec23a log2(fold_change): −0.8833
Selm log2(fold_change): −0.4019
Sepw1 log2(fold_change): −0.5369
Sepx1 log2(fold_change): −0.417
Serinc2 log2(fold_change): −2.5514
Serpinb9b log2(fold_change): −3.7131
Serpine2 log2(fold_change): −2.1235
Serpinf1 log2(fold_change): −2.5721
Serping1 log2(fold_change): −0.8115
Serpinh1 log2(fold_change): −0.337
Serpini1 log2(fold_change): 1.3473
Sertad4 log2(fold_change): −3.121
Sesn3 log2(fold_change): 1.596
Setbp1 log2(fold_change): −0.8714
Setd7 log2(fold_change): −0.2421
Sfrp1 log2(fold_change): −0.5017
Sgce log2(fold_change): −2.0094
Sh3gl3 log2(fold_change): −2.4548
Sh3kbp1 log2(fold_change): −1.8439
Shcbp1 log2(fold_change): 0.8877
Shisa2 log2(fold_change): 1.027
Shisa3 log2(fold_change): −1.5942
Shroom3 log2(fold_change): −0.8485
Sipa1l1 log2(fold_change): 0.6042
Skp2 log2(fold_change): −0.4125
Slc2a8 log2(fold_change): 0.8135
Slc2a10 log2(fold_change): −2.1952
Slc7a6 log2(fold_change): −0.5434
Slc9a3r1 log2(fold_change): 1.386
Slc16a3 log2(fold_change): −3.9927
Slc24a3 log2(fold_change): −0.5644
Slc35a2 log2(fold_change): −0.3641
Slc44a2 log2(fold_change): −0.2965
Slit2 log2(fold_change): 0.6866
Slit3 log2(fold_change): −0.4421
Smc2 log2(fold_change): 0.6717
Smc4 log2(fold_change): 0.62
Snai1 log2(fold_change): −0.4246
Snai2 log2(fold_change): 1.38
Snap47 log2(fold_change): 0.5756
Snta1 log2(fold_change): −0.3253
Snurf log2(fold_change): −0.7461
Snx30 log2(fold_change): −0.4459
Sorcs2 log2(fold_change): −5.2626
Spag5 log2(fold_change): 0.9117
Sparcl1 log2(fold_change): −2.4092
Spc24 log2(fold_change): 0.4494
Spc25 log2(fold_change): 1.212
Speg log2(fold_change): −1.8147
Spon2 log2(fold_change): −2.8564
Spp1 log2(fold_change): −2.0575
Spry1 log2(fold_change): 0.752
Srgap3 log2(fold_change): −1.7008
Srpx2 log2(fold_change): −3.7184
Srpx log2(fold_change): −2.4569
St5 log2(fold_change): 0.509
Steap2 log2(fold_change): −0.6515
Stk39 log2(fold_change): −0.4556
Stra6 log2(fold_change): −6.3397
Sulf1 log2(fold_change): −0.4274
Svep1 log2(fold_change): 2.307
Syt13 log2(fold_change): −2.6844
Tacc3 log2(fold_change): 0.5061
Tbx20 log2(fold_change): 1.389
Tbxa2r log2(fold_change): −1.9518
Tcea3 log2(fold_change): −1.5921
Tcf19 log2(fold_change): 1.669
Tead3 log2(fold_change): −0.4209
Tfdp2 log2(fold_change): 0.6479
Tfpi2 log2(fold_change): −3.0027
Thbs2 log2(fold_change): −0.8666
Thbs3 log2(fold_change): −2.4507
Thy1 log2(fold_change): −3.7357
Timp1 log2(fold_change): −1.7931
Timp2 log2(fold_change): 0.9045
Tinagl1 log2(fold_change): 0.5558
Tlcd2 log2(fold_change): −0.3733
Tll1 log2(fold_change): −3.6502
Tm7sf3 log2(fold_change): −0.4638
Tmeff1 log2(fold_change): −3.7746
Tmem9 log2(fold_change): −0.7597
Tmem14a log2(fold_change): −1.5484
Tmem38a log2(fold_change): −0.52
Tmem45a log2(fold_change): −1.6657
Tmem53 log2(fold_change): 0.6188
Tmem119 log2(fold_change): −0.2868
Tmem176a log2(fold_change): −0.5508
Tmem200a log2(fold_change): −4.1061
Tmsb10 log2(fold_change): 0.7412
Tnfsf8 log2(fold_change): −5.8552
Tnfsf13b log2(fold_change): −3.0126
Tnfsf15 log2(fold_change): −7.3507
Tnfsf18 log2(fold_change): −4.6786
Top2a log2(fold_change): 0.8227
Tpm1 log2(fold_change): −0.4794
Tpm2 log2(fold_change): −0.769
Trf log2(fold_change): −0.3919
Trim46 log2(fold_change): −1.8231
Trim59 log2(fold_change): 0.4395
Trnp1 log2(fold_change): −0.3979
Tro log2(fold_change): 0.5702
Trp53inp2 log2(fold_change): 0.4739
Trpc6 log2(fold_change): −7.4279
Tsku log2(fold_change): −2.3089
Tspan2 log2(fold_change): −2.1422
Tspan6 log2(fold_change): −0.2178
Ttc13 log2(fold_change): −0.2207
Ttc19 log2(fold_change): −0.5541
Tubb2b log2(fold_change): −0.4834
Tubb4 log2(fold_change): −0.3153
Twist1 log2(fold_change): 0.605
Txndc5 log2(fold_change): −0.2232
Ube2c log2(fold_change): −0.274
Ufsp2 log2(fold_change): −0.6512
Uhrf1 log2(fold_change): 0.4265
Unc119 log2(fold_change): −0.3655
Upk1b log2(fold_change): 1.6531
Vash2 log2(fold_change): −2.0211
Vegfa log2(fold_change): −2.1227
Vgll3 log2(fold_change): 0.5105
Wbscr17 log2(fold_change): −2.851
Wdr6 log2(fold_change): 0.9888
Wdr35 log2(fold_change): 0.43
Wee1 log2(fold_change): −0.4044
Wfs1 log2(fold_change): −0.2641
Whrn log2(fold_change): −0.5073
Wisp1 log2(fold_change): −4.0915
Wisp2 log2(fold_change): −5.8129
Wnt4 log2(fold_change): −1.9421
Wnt5a log2(fold_change): −2.1293
Wnt9a log2(fold_change): −0.3907
Wnt11 log2(fold_change): −2.9523
Wt1 log2(fold_change): 0.4796
Ydjc log2(fold_change): −2.3472
Ypel5 log2(fold_change): −0.6169
Zbtb7c log2(fold_change): 0.5911
Zbtb8b log2(fold_change): −2.1437
Zfp651 log2(fold_change): −0.6302
Zfp827 log2(fold_change): −3.4748
Zmat3 log2(fold_change): −0.5817
Zranb3 log2(fold_change): −0.829
Zwilch log2(fold_change): 1.193
Zyx log2(fold_change): −0.4475

From US20180325914A1, “INCREASING STORAGE OF VITAMIN A, VITAMIN D AND/OR LIPIDS” (Salk Institute for Biological Studies, priority 2014, published 2018)
